Laboratory results from patent US10729778B2, “Carrier-linked treprostinil prodrugs” (Ascendis Pharma A/S, priority 2011, dated 2020).
Like-named read-outs stand apart in the source and are kept apart here.

Conditions: pH 7.4, 37° C.

Substance: TransCon PEG linker treprostinil [Compound 5]
- released treprostinil [%] (incubation time 0.000 d): 2%
- released treprostinil [%] (incubation time 0.83 d): 5%
- released treprostinil [%] (incubation time 1.11 d): 18%
- released treprostinil [%] (incubation time 1.81 d): 27%
- released treprostinil [%] (incubation time 2.06 d): 29%
- released treprostinil [%] (incubation time 5.13 d): 59%
- released treprostinil [%] (incubation time 6.10 d): 64%
- released treprostinil [%] (incubation time 8.80 d): 77%
- released treprostinil [%] (incubation time 11.90 d): 86%
